Results: IntAct's records for PubMed 21111234

B1: Sororin (Homo sapiens), Q96FF9 (parent)
chain: MSGRRTRSGGAAQRSGPRAPSPTKPLRRSQRKSGSELPSILPEIWPKTPSAAAVRKPIVLKRIVAHAVEVPAVQSPRRSPRISFFLEKENEPPGRELTKEDLFKTHSVPATPTSTPVPNPEAESSSKEGELDARDLEMSKKVRRSYSRLETLGSASTSTPGRRSCFGFEGLLGAEDLSGVSPVVCSKLTEVPRVCAKPWAPDMTLPGISPPPEKQKRKKKKMPEILKTELDEWAAAMNAEFEAAEQFDLLVE
partner: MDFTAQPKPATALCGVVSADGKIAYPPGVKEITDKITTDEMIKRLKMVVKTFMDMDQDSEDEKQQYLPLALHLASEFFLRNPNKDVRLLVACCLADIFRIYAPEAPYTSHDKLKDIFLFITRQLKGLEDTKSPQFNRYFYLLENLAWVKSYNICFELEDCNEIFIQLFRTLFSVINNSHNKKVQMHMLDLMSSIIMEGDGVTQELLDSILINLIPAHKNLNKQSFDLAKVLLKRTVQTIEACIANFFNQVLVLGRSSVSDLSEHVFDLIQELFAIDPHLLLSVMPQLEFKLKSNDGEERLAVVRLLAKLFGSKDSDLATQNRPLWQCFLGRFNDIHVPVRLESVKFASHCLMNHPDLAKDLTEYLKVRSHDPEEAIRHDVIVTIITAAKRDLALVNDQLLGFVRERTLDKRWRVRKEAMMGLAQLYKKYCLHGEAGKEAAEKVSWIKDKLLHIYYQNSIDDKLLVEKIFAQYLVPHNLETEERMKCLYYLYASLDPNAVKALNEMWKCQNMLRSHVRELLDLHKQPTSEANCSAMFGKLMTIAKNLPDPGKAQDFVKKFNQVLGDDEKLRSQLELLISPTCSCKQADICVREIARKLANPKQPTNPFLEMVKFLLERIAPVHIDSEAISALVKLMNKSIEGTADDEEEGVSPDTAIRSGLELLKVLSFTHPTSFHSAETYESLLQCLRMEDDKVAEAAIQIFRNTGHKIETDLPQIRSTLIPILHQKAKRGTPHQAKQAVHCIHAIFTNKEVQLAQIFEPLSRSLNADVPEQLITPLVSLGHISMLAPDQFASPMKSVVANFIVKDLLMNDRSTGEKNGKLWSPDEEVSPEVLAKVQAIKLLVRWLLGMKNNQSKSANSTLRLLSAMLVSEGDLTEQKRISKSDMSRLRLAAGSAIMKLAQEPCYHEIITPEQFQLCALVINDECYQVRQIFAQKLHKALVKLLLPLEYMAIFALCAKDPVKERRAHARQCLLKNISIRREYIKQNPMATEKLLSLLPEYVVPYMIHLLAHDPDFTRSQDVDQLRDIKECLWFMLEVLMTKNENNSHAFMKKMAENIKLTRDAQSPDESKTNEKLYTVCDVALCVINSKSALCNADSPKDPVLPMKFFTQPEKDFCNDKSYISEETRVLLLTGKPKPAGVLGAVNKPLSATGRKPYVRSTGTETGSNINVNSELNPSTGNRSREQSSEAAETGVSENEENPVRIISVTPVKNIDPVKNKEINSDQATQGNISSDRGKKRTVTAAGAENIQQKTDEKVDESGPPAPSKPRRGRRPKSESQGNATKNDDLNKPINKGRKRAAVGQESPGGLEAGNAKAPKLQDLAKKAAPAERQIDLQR

Variants of: B1
Details: with pds5a_human PDS5A

Row | Variant | effect of a mutation on the interaction
1 | F166A;F168A | decreasing interaction
